The text below walks through data of ChEMBL document CHEMBL3887015, “Pyrazole substituted imidazopyrazines as casein kinase 1 d/e inhibitors” (2016).

Sequences of proteins named here, by UniProt entry; tags and fusion partners are left off. A change or cut given only in a name is not applied to a line headed by its entry.
UniProt P49674: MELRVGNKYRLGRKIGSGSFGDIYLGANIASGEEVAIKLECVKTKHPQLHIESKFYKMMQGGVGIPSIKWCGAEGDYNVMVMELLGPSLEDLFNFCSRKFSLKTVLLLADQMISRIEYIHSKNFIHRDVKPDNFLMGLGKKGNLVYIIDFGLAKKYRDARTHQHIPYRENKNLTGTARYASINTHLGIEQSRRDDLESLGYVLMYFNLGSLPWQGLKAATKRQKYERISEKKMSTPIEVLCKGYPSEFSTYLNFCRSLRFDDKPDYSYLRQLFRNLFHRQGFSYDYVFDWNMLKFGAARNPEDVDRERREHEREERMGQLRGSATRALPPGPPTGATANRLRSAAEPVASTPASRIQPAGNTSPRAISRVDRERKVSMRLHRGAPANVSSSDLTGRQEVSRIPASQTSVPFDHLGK

This test addresses Casein kinase I isoform epsilon (Homo sapiens, UniProt P49674). Kind of test: Kinase Assay: The kinase assay was performed in V-bottom 384-well plates. […] The reaction was incubated at room temperature for 22 hours and terminated by adding 45 ul of 35 mM EDTA to each sample. […] Compounds were dissolved at 10 mM in dimethylsulfoxide (DMSO) and evaluated at eleven concentrations. IC50 values were derived by non-linear regression analysis.

Take `Cn1cc(-c2ccc3nc(NC(=O)c4cncc(-c5ccc(C#N)cc5)c4)cn3n2)c(-c2ccc(F)cc2)n1`: the half-maximal inhibitory concentration (IC50) is 23.9 nM.

For the molecule `Cn1cc(-c2ccc3nc(NC(=O)c4cscn4)cn3n2)c(-c2ccc(F)cc2)n1`, the half-maximal inhibitory concentration (IC50) was found to be 23.4 nM.

A word on the IC50: it is the concentration that gives 50% inhibition. The low end stands for inhibition by little substance, the high end for a need for much substance.
